The results in this text go back to article doi:10.1101/2023.01.11.523589v2 (biorxiv, 2023).

Amino acid sequences for entries named in this document (tags omitted).
UniProt P40337, whole entry: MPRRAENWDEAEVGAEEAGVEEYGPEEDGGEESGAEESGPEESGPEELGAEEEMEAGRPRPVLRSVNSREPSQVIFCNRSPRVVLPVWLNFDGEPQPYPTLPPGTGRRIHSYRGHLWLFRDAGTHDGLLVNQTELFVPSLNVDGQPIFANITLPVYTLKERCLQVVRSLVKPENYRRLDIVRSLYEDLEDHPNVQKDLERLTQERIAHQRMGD

In the test the target is VHL (full-length, NanoLuc fusion) (Homo sapiens, UniProt P40337). Nature of the test: NanoBRET tracer displacement, permeabilised HEK293T cells. Format: biochemical. Background: Bioluminescence resonance energy transfer reports proximity on the nanometre scale.

In the case of `Cc1ncsc1-c1ccc(CNC(=O)[C@@H]2C[C@@H](O)CN2C(=O)[C@@H](NC(=O)Cc2ccc(CNC(=O)c3ccc(-c4ccc(N5CCN(C)CC5)c(NC(=O)c5c[nH]c(=O)cc5C(F)(F)F)c4)cc3)cc2)C(C)(C)C)cc1` [AD142], the IC50 (usually the point on the concentration scale where inhibition reaches its midpoint) was 16.3 µM.
